Source: patent US20090099157A1, “TETRAHYDRO-PYRAZOLO-PYRIDINE THIOETHER MODULATORS OF CATHEPSIN S” (priority 2007, published 2009)

By UniProt entry, the sequences of proteins in these tests, tags left out. Residues count along the entry.
UniProt P25774, 115-331: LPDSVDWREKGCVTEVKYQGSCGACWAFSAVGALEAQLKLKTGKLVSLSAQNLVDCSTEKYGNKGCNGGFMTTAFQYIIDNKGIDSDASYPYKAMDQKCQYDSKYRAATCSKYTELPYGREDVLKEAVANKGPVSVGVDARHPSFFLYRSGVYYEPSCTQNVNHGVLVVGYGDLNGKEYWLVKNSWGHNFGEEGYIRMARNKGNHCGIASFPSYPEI

What follows are compounds tested against Recombinant human cathepsin S (CatS) (Homo sapiens, UniProt P25774) (assay: biochemical).
`CS(=O)(=O)N1CCc2c(c(-c3ccc(C(F)(F)F)c(SCCN4CCC(F)CC4)c3)nn2C[C@@H](O)CN2CCCCC2)C1` [Example 199, (2S)-1-{3-[3-{[2-(4-Fluoropiperidin-1-yl)ethyl]sulfanyl}-4-(trifluoromethyl)phenyl]-5-(methylsulfonyl)-4,5,6,7-tetrahydro-1H-pyrazolo[4,3-c]pyridin-1-yl}-3-piperidin-1-ylpropan-2-ol] showed a pIC50 of 7.22. `O=C(C1CCN(CC(O)Cn2nc(-c3ccc(C(F)(F)F)c(SCCN4CCCC(O)C4)c3)c3c2CCNC3)CC1)N1CCCC1` (stereo not drawn) [Example 497, 1-(2-{[5-(1-{2-Hydroxy-3-[4-(pyrrolidin-1-ylcarbonyl)piperidin-1-yl]propyl}-4,5,6,7-tetrahydro-1H-pyrazolo[4,3-c]pyridin-3-yl)-2-(trifluoromethyl)phenyl]sulfanyl}ethyl)piperidin-3-ol] gave a pIC50 of 5.21. With `CS(=O)(=O)N1CCc2c(c(-c3ccc(C(F)(F)F)c(SCCN4CCC(CCO)CC4)c3)nn2CCCN2CCC(N3CCCC3=O)CC2)C1` [Example 24, 1-(1-{3-[3-(3-{2-[4-(2-Hydroxy-ethyl)-piperidin-1-yl]-ethylsulfanyl}-4-trifluoromethyl-phenyl)-5-methanesulfonyl-4,5,6,7-tetrahydro-pyrazolo[4,3-c]pyridin-1-yl]-propyl}-piperidin-4-yl)-pyrrolidin-2-one] the pIC50 was 6.46. With `CS(=O)(=O)N1CCc2c(c(-c3ccc(C(F)(F)F)c(SCCNC(=O)C4CCCNC4)c3)nn2CC(O)CN2CCC(N3CCCC3=O)CC2)C1` (stereo not drawn) [Example 125, Piperidine-3-carboxylic acid {2-[5-(1-{2-hydroxy-3-[4-(2-oxo-pyrrolidin-1-yl)-piperidin-1-yl]-propyl}-5-methanesulfonyl-4,5,6,7-tetrahydro-1H-pyrazolo[4,3-c]pyridin-3-yl)-2-trifluoromethyl-phenylsulfanyl]-ethyl}-amide] the pIC50 was 6.38. `CC(=O)NC1CCN(CCSc2cc(-c3nn(C[C@@H](O)CN4CCCCC4)c4c3CN(S(C)(=O)=O)CC4)ccc2C(F)(F)F)CC1` [Example 220, N-[1-(2-{[5-{1-[(2S)-2-Hydroxy-3-piperidin-1-ylpropyl]-5-(methylsulfonyl)-4,5,6,7-tetrahydro-1H-pyrazolo[4,3-c]pyridin-3-yl}-2-(trifluoromethyl)phenyl]sulfanyl}ethyl)piperidin-4-yl]acetamide] was tested, and the pIC50 was less than 4.70. `CC1CCN(CCSc2cc(-c3nn(C[C@@H](O)CN4CCC(C)(C)CC4)c4c3CN(S(C)(=O)=O)CC4)ccc2C(F)(F)F)CC1` [Example 540, (2S)-1-(4,4-Dimethylpiperidin-1-yl)-3-{3-[3-{[2-(4-methylpiperidin-1-yl)ethyl]sulfanyl}-4-(trifluoromethyl)phenyl]-5-(methylsulfonyl)-4,5,6,7-tetrahydro-1H-pyrazolo[4,3-c]pyridin-1-yl}propan-2-ol] was tested, and the pIC50 was 6.74. For `CS(=O)(=O)N1CCc2c(c(-c3ccc(C(F)(F)F)c(SCCOc4ccccc4)c3)nn2CCCN2CCOCC2)C1` [Example 130, 5-Methanesulfonyl-1-(3-morpholin-4-yl-propyl)-3-[3-(2-phenoxy-ethylsulfanyl)-4-trifluoromethyl-phenyl]-4,5,6,7-tetrahydro-1H-pyrazolo[4,3-c]pyridine], the pIC50 was 6.13. For `CS(=O)(=O)N1CCc2c(c(-c3ccc(C(F)(F)F)c(SCCN4CCC(F)CC4)c3)nn2C[C@H](O)CN2CCCCC2)C1` [Example 198, (2R)-1-{3-[3-{[2-(4-Fluoropiperidin-1-yl)ethyl]sulfanyl}-4-(trifluoromethyl)phenyl]-5-(methylsulfonyl)-4,5,6,7-tetrahydro-1H-pyrazolo[4,3-c]pyridin-1-yl}-3-piperidin-1-ylpropan-2-ol], the pIC50 was 6.40. Compound `O=C(CSc1cc(-c2nn(CC(O)CN3CCC(N4CCCC4=O)CC3)c3c2CNCC3)ccc1C(F)(F)F)N1CCCC1` (stereo not drawn) [Example 270, 1-{1-[2-Hydroxy-3-(3-{3-[(2-oxo-2-pyrrolidin-1-ylethyl)sulfanyl]-4-(trifluoromethyl)phenyl}-4,5,6,7-tetrahydro-1H-pyrazolo[4,3-c]pyridin-1-yl)propyl]piperidin-4-yl}pyrrolidin-2-one] has a pIC50 of 6.41.

pIC50: −log10 of the molar value.
